In EP4825392A1, “METHOD FOR TREATING METABOLIC DISEASES AND PHARMACEUTICAL USE OF GLP-1 ANALOGUE” (dated 2026):

Legend:
[1] = Clinical study of efficacy and safety in overweight or obese subjects, target dose 8.0 mg QW; details: after 36 weeks of administration, 8.0 mg group
From the text: (§1) • 1) The GLP-1 analogue prepared in Example 1, presented as an injection.
Subjects who are overweight with at least one weight-related comorbidity or obese subjects who had suboptimal response to dietary and lifestyle intervention alone.
Subjects must meet all of the following criteria to be eligible for this study: • 1) Aged 18-65 years (inclusive), without restriction on gender; • 2) Met the following body mass index (BMI) criteria at screening: • -28.0-40.0 kg/m^2 (inclusive), or • -24.0 (inclusive) - 28.0 (exclusive) kg/m^2 and having at least one weight-related comorbidity • 3) Self-reported diet and exercise intervention for 3 months or more prior to screening, with a body weight fluctuation (the difference between the maximum and minimum body weight within 3 months) not exceeding 5 kg in the latest 3 months;
The GLP-1 analogue injection or placebo was administered via abdominal subcutaneous injection once a week, either before or after meals. GLP-1 analogue injection or placebo was administered starting at 1.0 mg QW, with dose escalation every 4 weeks, gradually titrated to reach the target dose of 8.0 mg QW. The specific dosing regimen is shown in Table 7 below: Table 7: Dosing regimen
Efficacy evaluation indicators include body weight, waist circumference, BMI, blood pressure (systolic and diastolic blood pressure), glucose metabolism (fasting plasma glucose, fasting serum insulin, HbA1c), and blood lipids (TG, TC, LDL-C, non-HDL-C, HDL-C).
(§2) Safety evaluation indicators include adverse events, laboratory indicators, 12-lead electrocardiogram, vital signs, physical examination, PHQ-9 score, etc.

[2] = Phase II clinical study of efficacy and safety in subjects with type 2 diabetes; details: for AE: cell presumably number of subjects (percent); for Abdominal discomfort / Abdominal distension / Abdominal pain / Diarrhea / Flatulence / Gastroesophag eal reflux disease / Nausea / Vomiting: drug-related gastrointestinal adverse reaction during treatment
From the text: as §1
Subjects must meet all of the following criteria to be eligible for this study: • 1) Aged 18-65 years (inclusive), without restriction on gender; • 2) Diagnosed with type 2 diabetes according to the criteria of the "Guidelines for the Prevention and Treatment of Type 2 Diabetes in China (2020 Edition)", with a duration of at least 6 months since meeting the diagnostic criteria; • 3) Received lifestyle intervention alone for at least 8 weeks prior to screening, or maintained stable monotherapy with metformin (daily dose ≥ 1000 mg) for at least 8 weeks. Stable treatment is defined as no changes in medication type and daily dosage; • 4) 7.5%≤HbA1c≤10.5% at screening; • 5) Body mass index (BMI) at screening: 22.0-40.0kg/m^2 (inclusive); • 6) Body weight fluctuation (the difference between the maximum and minimum body weight within 3 months) shall not exceed 5 kg in the 3 months before screening.
The investigational drug was administered via subcutaneous injection into the abdomen once a week, either before or after meals.
First treatment period (weeks 0-19): Subjects received GLP-1 analogue injection at doses of 1.0 mg, 2.0 mg, 3.0 mg and 4.5 mg, as well as placebo, for a 20-week treatment duration.
Second treatment period (weeks 20-31): The doses of GLP-1 analogue injection or placebo administered in the first treatment period were maintained. The original investigational product groups were additionally given placebo, and the original placebo group received an additional 1.0 mg of the investigational drug. The treatment lasted for 12 weeks.
Efficacy evaluation indicators include HbA1c, fasting and 2h post-mixed-meal plasma glucose, fasting and 2h post-mixed-meal serum insulin and C-peptide, pancreatic β-cell function, insulin resistance (HOMA model), 7-point SMBG profile, body weight, waist circumference, blood lipids (TC, LDL-C, HDL-C, TG), and blood pressure (systolic blood pressure, diastolic blood pressure), and the like.
Adverse events, hypoglycemic events, laboratory indicators, 12-lead electrocardiogram, vital signs, etc.
A total of 199 subjects with type 2 diabetes were randomly assigned in a 1:1:1:1:1 ratio to receive once-weekly subcutaneous injections of GLP-1 analogue (1.0 mg, 2.0 mg, 3.0 mg, and 4.5 mg) or placebo for 20 weeks. The primary endpoint was the change in glycated hemoglobin (HbA1C) relative to baseline after 20 weeks of administration.

[3] = Phase I clinical study: safety, tolerability, pharmacokinetics and pharmacodynamics of single and multiple subcutaneous administrations
Method: A randomized, double-blind, dose-escalating, placebo-controlled Phase I clinical study was conducted in healthy subjects to evaluate the safety, tolerability, pharmacokinetic and pharmacodynamic profiles of single and multiple subcutaneous administrations of GLP-1 analogue injections

[4] = Phase II clinical study of efficacy and safety in obese, non-diabetic subjects
Method: • 1) The GLP-1 analogue prepared in Example 1, presented as an injection with a specification of 3ml : 30 mg.
Subjects must meet all of the following criteria to be eligible for enrollment in this study: • 1) Aged 18-65 years (inclusive), without restriction on gender; • 2) Body mass index (BMI) at screening: 28.0-40.0 kg/m^2 (inclusive); • 3) Self-reported diet and exercise intervention for 3 months or more prior to screening, with a body weight fluctuation (the difference between the maximum and minimum body weight within 3 months) not exceeding 5 kg in the latest 3 months.
The GLP-1 analogue or placebo was administered via subcutaneous injection into the abdomen, either before or after meals. The detailed dosing regimen is as follows: Table 1. Dosing regimens for the first treatment period (weeks 0-23) and the second treatment period (weeks 24-31)
Efficacy assessment indicators include body weight, waist circumference, BMI, blood pressure (systolic blood pressure and diastolic blood pressure), glucose metabolism (fasting plasma glucose, fasting serum insulin, insulin resistance (HOMA model*), and HbA1c), and lipids (TC, LDLC, HDL-C, and TG). • *Note: Insulin resistance under the Homeostasis Model Assessment (HOMA) (HOMA-IR) is calculated using the following formula: HOMA−IR = [Fastingplasmaglucose(FPG,mmol/L)×Fastinginsulin(FINS,mIU/L)]/22.5 [formula]
as §2
A total of 249 Chinese adults with a body mass index of 28-40kg/m^2 received once-weekly subcutaneous injections of a GLP-1 analogue (1.0 mg QW group, 3.0 mg QW group, 4.5 mg QW group, 6.0 mg QW group) or placebo for 24 weeks (24W), in accordance with the dosing regimen for the first treatment period specified in Table 1.

[5] = D22, after the fourth subcutaneous administration of 0.9 mg, 2.7 mg and 5.4 mg
[6] = single subcutaneous injection, 0.1 to 8.1 mg, across all dose groups
[7] = W24, range across the GLP-1 analogue groups (1.0 to 6.0 mg QW)

## H-YAibEGTFTSDYSIYK(OEG-OEG-γGlu-C20-OH)EKIAAQEFVNWLLAGGPSSGAPPPS-NH2
[1]
  least squares mean difference compared with the placebo group (percentage change in body weight): -21.09%
  percentage change in body weight from baseline: -22.82%
  subjects who achieved a weight loss of ≥20%: 59%
[2]; 1.0 mg (N=40)
  Hypoglycemia Grade 2-3: 0
  AE: 30 (75.0)
  Abdominal discomfort: 0
  Abdominal distension: 2 (5.0)
  Abdominal pain: 1 (2.5)
  Diarrhea: 6 (15.0)
  Flatulence: 1 (2.5)
  Gastroesophag eal reflux disease: 0
  Nausea: 4 (10.0)
  Vomiting: 2 (5.0)
[2]; 2.0 mg (N=41)
  Hypoglycemia Grade 2-3: 0
  AE: 35 (85.4)
  Abdominal discomfort: 2 (4.9)
  Abdominal distension: 1 (2.4)
  Abdominal pain: 0
  Diarrhea: 10 (24.4)
  Flatulence: 1 (2.4)
  Gastroesophag eal reflux disease: 0
  Nausea: 7 (17.1)
  Vomiting: 1 (2.4)
[2]; 3.0 mg (N=39)
  Hypoglycemia Grade 2-3: 0
  AE: 32 (82.1)
  Abdominal discomfort: 0
  Abdominal distension: 3 (7.7)
  Abdominal pain: 0
  Diarrhea: 10 (25.6)
  Flatulence: 0
  Gastroesophag eal reflux disease: 0
  Nausea: 9 (23.1)
  Vomiting: 3 (7.7)
[2]; 4.5 mg (N=40)
  Hypoglycemia Grade 2-3: 0
  AE: 34 (85.0)
  Abdominal discomfort: 2 (5.0)
  Abdominal distension: 6 (15.0)
  Abdominal pain: 2 (5.0)
  Diarrhea: 14 (35.0)
  Flatulence: 2 (5.0)
  Gastroesophag eal reflux disease: 3 (7.5)
  Nausea: 9 (22.5)
  Vomiting: 3 (7.5)
[2]; GLP-1 analogue groups 1.0 to 4.5 mg
  clinically significant hypoglycemia (< 3 mmol/L) or severe hypoglycemia: No clinically significant hypoglycemia (< 3 mmol/L) or severe hypoglycemia was reported
[2]; metformin subgroup, week 20, 2.0 mg group
  LS Mean changes in HbA1C from baseline: -2.4%
[2]; metformin subgroup, week 20, 3.0 mg group
  LS Mean changes in HbA1C from baseline: -2.9%
[2]; metformin subgroup, week 20, 4.5 mg group
  LS Mean changes in HbA1C from baseline: -2.2%
[2]; non-metformin subgroup, week 20, 1.0 mg group
  LS Mean changes in HbA1C from baseline: -2.3%
[2]; non-metformin subgroup, week 20, 2.0 mg group
  LS Mean changes in HbA1C from baseline: -2.7%
[2]; non-metformin subgroup, week 20, 3.0 mg group
  LS Mean changes in HbA1C from baseline: -2.5%
[2]; non-metformin subgroup, week 20, 4.5 mg group
  LS Mean changes in HbA1C from baseline: -2.7%
[2]; week 20, 1.0 mg group
  LS Mean changes in body weight compared to baseline: -3.1%
  LS Mean changes in triglycerides (TG) compared to baseline: -10.0%
  LS Mean changes in urinary protein-to-creatinine ratio (UACR) compared to baseline: -18.1%
  least squares mean (LS Mean) changes in HbA1C from baseline: -2.1%
  percentages achieving HbA1c < 5.7%: 17.5%
  percentages achieving HbA1c ≤ 6.5%: 62.5%
  percentages of subjects achieving the target HbA1c < 7.0%: 75.0%
[2]; week 20, 2.0 mg group
  LS Mean changes in body weight compared to baseline: -4.9%
  LS Mean changes in triglycerides (TG) compared to baseline: -25.9%
  least squares mean (LS Mean) changes in HbA1C from baseline: -2.6%
  percentages achieving HbA1c < 5.7%: 26.8%
  percentages achieving HbA1c ≤ 6.5%: 80.5%
  percentages of subjects achieving the target HbA1c < 7.0%: 90.2%
[2]; week 20, 3.0 mg group
  LS Mean changes in body weight compared to baseline: -5.5%
  LS Mean changes in systolic blood pressure (SBP) relative to baseline: -10.0%
  LS Mean changes in triglycerides (TG) compared to baseline: -25.7%
  LS Mean changes in urinary protein-to-creatinine ratio (UACR) compared to baseline: -46.5%
  percentages achieving HbA1c < 5.7%: 28.2%
  percentages achieving HbA1c ≤ 6.5%: 69.2%
  percentages of subjects achieving the target HbA1c < 7.0%: 84.6%
[2]; week 20, 4.5 mg group
  LS Mean changes in body weight compared to baseline: -7.1%
  LS Mean changes in systolic blood pressure (SBP) relative to baseline: -6.7%
  LS Mean changes in triglycerides (TG) compared to baseline: -27.9%
  LS Mean changes in urinary protein-to-creatinine ratio (UACR) compared to baseline: -49.5%
  least squares mean (LS Mean) changes in HbA1C from baseline: -2.5%
  percentages achieving HbA1c < 5.7%: 35.0%
  percentages achieving HbA1c ≤ 6.5%: 90.0%
  percentages of subjects achieving the target HbA1c < 7.0%: 90.0%
[3]; 0.9 mg and 2.7 mg dose groups
  exposure accumulation ratio on D22: approximately 2 fold
[3]; 72 subjects, single or multiple administrations, 0.1 to 8.1 mg
  severe hypoglycemia or serious adverse events: No severe hypoglycemia or serious adverse events occurred
[3]; 72 subjects, single or multiple administrations, 0.1 to 8.1 mg (47/72)
  incidence of GLP-1 analogue-related adverse events (AEs): 65.3%
[3]; [5]
  arithmetic mean of t1/2: 169 to 192 h
  geometric mean of MRT: 279 to 303 h
  geometric mean of steady-state apparent clearance (CLss/F): 27.7 to 41.1 mL/h
[3]; D22, after the fourth subcutaneous administration of 0.9 mg, 2.7 mg and 5.4 mg, all dose groups
  median time to peak: 48 to 72 h
[3]; [6]
  arithmetic mean of the terminal elimination half-life (t1/2): 156 to 182 h
  geometric mean of the mean residence time (MRT): 251 to 288 h
  median time to peak: 48 to 72 h
[4]; 24 weeks, 1.0 to 6.0 mg QW groups
  treatment-related serious adverse events: No treatment-related serious adverse events occurred
[4]; [7]
  least squares mean change in systolic blood pressure from baseline: -4.46 to -8.33 mmHg
  least squares mean change in waist circumference from baseline: -5.14 to -12.73 cm
[4]; week 24, 1.0 mg QW group
  mean percentage change in body weight from baseline: -5.4%
  percentages of participants who experienced a weight loss of ≥5%: 52.0%
[4]; week 24, 3.0 mg QW group
  mean percentage change in body weight from baseline: -13.4%
  percentages of participants who experienced a weight loss of ≥5%: 88.2%
[4]; week 24, 4.5 mg QW group
  mean percentage change in body weight from baseline: -14.0%
  percentages of participants who experienced a weight loss of ≥5%: 92.0%
[4]; week 24, 6.0 mg QW group
  mean percentage change in body weight from baseline: -16.8%
  percentages of participants who experienced a weight loss of ≥5%: 91.8%
